# Screens (PubChem BioAssay)
# HCMV UL50-53 inh: cytomegalovirus nuclear egress complex inhibition. HTRF UL50-UL53 interaction, normalized percent inhibition. inhibition, % (concentration not given with the values). 190,000 tested, 0.15% active; in the data active = inhibition above about 27%, passing the limit was not always enough
# GIV-Gai inh: GIV-Galpha-i interaction inhibition; P08753; Galpha-i3/FITC-GIV peptide fluorescence polarization, 90 min; active compounds read low; scaled: aluminum fluoride 0%, vehicle 100%; percent of control (FP), % (no concentration beside the values); 210,000 compounds, 0.42% hits; AID 1224905;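 active means replicate mean at 85% of control or lower, very high polarization wells dropped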;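 further: wells of about 15 µL received 100 nL stock; the first replicate is given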
# GIV Gai FP conf: GIV-Galpha-i3 inhibition, FP confirmation. FITC-GIV peptide binding to Galphai3, fluorescence polarization; hits give low values. shares compounds with GIV-Gai inh. fluorescence polarization, mP at 100 µM. 580 tested, 38% active;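 active = inhibition score of 15 or more, meaning 100 minus mean polarization as percent of control over three replicates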;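 note: lower mP means peptide displaced from Galphai3 so more inhibition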
# GIV-Gai AS conf: confirmation of inhibitors of GIV binding to human Galpha-i3; AlphaScreen Galphai3-GIV binding, purified proteins, 90 min; hits give low values; shares compounds with GIV-Gai inh; AlphaScreen counts at 100 µM; 580 tested, 39% active;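 active = inhibition score at or above a set limit, where the score is 100 minus the three-replicate mean percent of control signal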
# Hits are given with their value; . = inactive; / = not tested or not shown. An excerpt weighted towards active compounds, which were near 0.46% of everything screened.
SMILES,HCMV UL50-53 inh,GIV-Gai inh,GIV Gai FP conf,GIV-Gai AS conf
COc1ccc(NC(=O)c2cc(-c3ccncc3)n[nH]2)c(OC)c1,.,.,/,/
CCOC(=O)c1c(NC(=O)c2nc(S(=O)(=O)CC)ncc2Cl)sc2c1CCCC2,.,.,/,/
CCCS(=O)(=O)c1ncc(Cl)c(C(=O)Nc2sc3c(c2C(=O)OCC)CCCC3)n1,.,75.9,.,.
CCc1ccc2nc(N(Cc3cccnc3)C(=O)Cc3ccccc3)sc2c1,/,37.4,.,.
COc1ccc2nc(N(Cc3cccnc3)C(=O)Cc3ccccc3)sc2c1,/,.,/,/
O=C(c1ccc(F)cc1)N1CCN(c2nc3ccccc3n3cccc23)CC1,.,.,/,/
Cc1cccc(NC(=O)N2CCN(c3cc(=O)n4nc(-c5cccc(C)c5)sc4n3)CC2)c1,.,.,.,.
Cc1cccc(-c2nn3c(=O)cc(N4CCN(C(=O)Nc5ccc6c(c5)OCO6)CC4)nc3s2)c1,.,.,/,/
Cc1ccccc1-c1nn2c(=O)cc(N3CCN(C(=O)Nc4ccccc4)CC3)nc2s1,.,.,/,/
Cc1ccccc1-c1nn2c(=O)cc(N3CCN(C(=O)Nc4cccc(F)c4)CC3)nc2s1,.,.,.,.
CCn1c(COc2ccccc2OC)nnc1SCC(=O)c1c(C)n(C)c2ccccc12,/,.,/,/
Cc1ccsc1C1C=C(c2cccc(Br)c2)Nc2ncnn21 (centres undefined),/,80.8,47.3,.
CCc1ccc(C2=CC(c3sccc3C)n3ncnc3N2)cc1 (centres undefined),/,.,/,/
Cc1cc(N2CCOCC2)c(F)cc1C(=O)c1ccccc1,.,.,.,.
Cc1ccc(C(=O)c2cc(F)c(N3CCOCC3)cc2Cl)cc1C,/,.,/,/
C=CC[N+]1(C2C[C@H]3[C@@H]4CC[C@H]5CC(O)C(N6CCOCC6)C[C@]5(C)[C@@H]4CC[C@]3(C)C2OC(C)=O)CCCC1 (some centres undefined),.,/,/,/
CCOC(=O)c1c(-c2ccc(Br)cc2)csc1/N=C/c1c(C)[nH]n(-c2ccccc2)c1=O,.,75.2,.,.
CCOC(=O)c1c(-c2ccc(Br)cc2)csc1/N=C/C1C(=O)NC(=S)NC1=O,/,.,/,/
O=C(Cc1ccccc1)NC1(O)C(=O)c2ccccc2C1=O,50.3,61.1,51.6,.
O=C(NCCc1ccccc1)c1ccccn1,.,/,/,/
O=C(NC1(O)C(=O)c2ccccc2C1=O)c1ccccn1,.,73.6,.,.
O=C(NO)c1ccc(C(F)(F)F)cc1,.,/,/,/
Cc1ccc(C(=O)NC2(O)C(=O)c3ccccc3C2=O)cc1C,58.8,57.4,44.6,.
O=C(NC1(O)C(=O)c2ccccc2C1=O)c1ccc(C(F)(F)F)cc1,57.6,55.9,.,.
Cc1ccc(C(=O)O)cc1NC1(c2ccccc2)C(=O)c2ccccc2C1=O,/,.,/,/
SMILES,HCMV UL50-53 inh,GIV-Gai inh,GIV Gai FP conf,GIV-Gai AS conf
O=C(O)CNC(=O)Cc1ccccc1,.,.,/,/
COc1cccc(CN2CCN(c3ccc4cccc(OC)c4n3)CC2)c1,.,/,/,/
O=C(CCc1nc2cccnc2n1-c1ccccc1)NC1CCCCC1,.,.,/,/
COC(=O)c1cnn(-c2c(Cl)cccc2Cl)c1C=C(C#N)C#N,.,.,/,/
COC(=O)c1cc(-c2cocc2C=C(C#N)C#N)ccc1Cl,.,52.0,.,.
Cc1c(C#N)c(O)n(CCO)c(=O)c1N=Nc1cccc(C(=O)O)c1,.,.,/,/
CCN1C(=O)c2cc(C(=O)N3CCN(C4CCCCC4)CC3)nn2CC1(C)C(=O)NC1CCCC1 (centres undefined),.,.,/,/
COc1ccc(Cn2ccc3nc(C)c(C(=O)Nc4cc(OC)cc(OC)c4)cc3c2=O)cc1,.,.,/,/
CCc1cccc(NC(=O)c2cc3c(=O)n(Cc4ccc(OC)cc4)ccc3nc2C)c1,/,.,.,.
CC(NCc1ccc(F)cc1)C12CC3CC(CC(C3)C1)C2 (centres undefined),/,.,.,.
CC(NCc1ccc(F)cc1)C(=O)NC1CCCCC1 (centres undefined),.,.,/,/
CCC(=O)NC1=NC(=O)/C(=C/c2ccc(OCc3ccccc3F)cc2)S1,/,.,/,/
O=C(CC1SC(=O)NC1=O)Nc1ccc(O)cc1 (centres undefined),.,.,/,/
O=C(CC1SC(=O)NC1=O)Nc1cccc(NC(=O)CC2SC(=O)NC2=O)c1 (centres undefined),.,76.2,62.3,9767
COc1ccc(Cn2c(=O)cnn(C3OC(COC(C)=O)C(OC(C)=O)C(OC(C)=O)C3OC(C)=O)c2=O)cc1Br (centres undefined),/,.,/,/
Cc1cccc(C(=O)N2CSC[C@@H]2C(=O)NCCc2cscn2)c1,/,.,/,/
COc1cc(/C=C2\C(=O)NC(=O)N(C)C2=O)ccc1OCc1ccc(C(=O)O)cc1,.,.,/,/
O=C(O)COc1ccc(/C=C2\C(=O)NC(=S)N(c3ccc(F)cc3)C2=O)cc1Br,.,.,/,/
O=C1NC(=S)NC(=O)C1=Cc1ccc(OCc2ccc(C(=O)O)cc2)c(Br)c1,.,.,10.6,2330
O=C(O)COc1ccc(/C=C2\C(=O)NC(=S)N(c3ccc(Cl)cc3)C2=O)cc1Br,.,73.0,33.9,.
O=C1CN(C(=O)CSc2nnc(Cc3cccs3)n2CCc2ccccc2)c2ccccc2N1,.,/,/,/
Cc1nc(N=Nc2cc(S(=O)(=O)O)c3cc([N+](=O)[O-])cc(S(=O)(=O)O)c3c2)c(COP(=O)(O)O)c(C=O)c1O,.,17.4,53.3,3265
COc1ccc2c(c1)N(C)/C(=c1/s/c(=C3/C(=O)N(c4ccccc4)N=C3C)n(C)c1=O)S2,.,73.0,.,.
COc1ccc2c(c1)N(C)/C(=c1/s/c(=C3/C(=O)N(C)C(=S)N3C)n(Cc3ccccc3)c1=O)S2,/,.,/,/
COC(=O)c1sc2nc3n(c(=O)c2c1C)N=C(c1cccc(OC)c1)CS3,.,.,/,/
SMILES,HCMV UL50-53 inh,GIV-Gai inh,GIV Gai FP conf,GIV-Gai AS conf
O=C(O)c1cc(NS(=O)(=O)c2cc(F)ccc2F)ccc1N1CCN(c2ccc(F)cc2)CC1,.,.,/,/
O=C(O)c1cc(NS(=O)(=O)c2cc(F)ccc2F)cnc1N1CCOCC1,.,56.8,32.6,.
Cc1c(Cl)cccc1NC(=O)Nc1cccc(OCc2cc(=O)n3ccccc3n2)c1,/,.,/,/
Cc1ccn2c(=O)cc(COc3ccc(NC(=O)Nc4ccc(Cl)cc4)cc3)nc2c1,/,82.5,.,.
Cc1ccn2c(=O)cc(COc3ccc(NC(=O)Nc4cccc(Cl)c4)cc3)nc2c1,/,.,/,/
Cc1ccn2c(=O)cc(COc3cccc(NC(=O)Nc4cccc(Cl)c4C)c3)nc2c1,/,.,.,.
C=CCNc1nc(NCc2ccccc2)c2cnn(C)c2n1,.,.,/,/
Cc1ccc(N2C(=O)/C(=C/c3ccc(-c4ccc([N+](=O)[O-])cc4)o3)C=C2c2ccccc2)cc1,/,.,/,/
COC(=O)CCSc1nc2sc3c(c2c(=O)n1-c1ccc(OC)cc1)CCC3,.,.,/,/
CCC(=O)Nc1cccc(-c2nc3ccccc3o2)c1,.,/,/,/
O=C(Nc1cccc(-c2nc3ccccc3o2)c1)C(F)(F)F,.,70.3,.,.
CCc1ccc(-n2c(C)ccc2C)cc1,.,/,/,/
Cc1ccc(C)n1-c1sccc1C(=O)CC#N,.,.,/,/
Cc1ccc(C)n1-c1ccc(CC(=O)O)cc1,.,35.9,33.2,2612
Cc1ccc(C)n1-c1sccc1C(=O)O,.,26.6,.,3223
